Paper PMC7612964

Protein sequences, listed by entry. Tags and fused reporters are not part of them.
UniProt P28347, whole entry: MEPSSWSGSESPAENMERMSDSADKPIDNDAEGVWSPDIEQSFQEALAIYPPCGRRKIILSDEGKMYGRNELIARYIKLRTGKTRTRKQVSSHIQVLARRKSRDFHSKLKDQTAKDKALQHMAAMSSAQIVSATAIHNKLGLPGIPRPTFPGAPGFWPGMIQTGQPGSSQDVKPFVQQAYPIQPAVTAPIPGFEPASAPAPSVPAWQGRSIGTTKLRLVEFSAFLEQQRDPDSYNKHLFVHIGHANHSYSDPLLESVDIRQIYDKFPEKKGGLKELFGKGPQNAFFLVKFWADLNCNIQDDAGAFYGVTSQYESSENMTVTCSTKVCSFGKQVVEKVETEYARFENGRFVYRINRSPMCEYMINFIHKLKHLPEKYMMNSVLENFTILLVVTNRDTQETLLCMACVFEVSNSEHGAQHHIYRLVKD

Molecular target: endogenous TEAD1 (human (endogenous in MCF10AT, MCF10A)) (UniProt P28347)
Assay: proximity ligation

NLS-YAP (natural protein) was tested, and the % PLA-positive cells (C3, ARID1A depleted) was 43.4%, the % PLA-positive cells (High mechanics) was 46.3% and the % PLA-positive cells (Lat.A, ARID1A depleted) was 48.5%. For the same substance, the % PLA-positive cells (anti-integrin antibodies, ARID1A depleted) was 67%, the % PLA-positive cells (small adhesive area, ARID1A depleted) was 44% and the % PLA-positive cells (soft ECM, ARID1A depleted) was 49.8%.
